{"source": "paper PMC7769008", "about": "(2020)", "key": {"[1]": {"details": "MLM incubation"}, "[2]": {"test_system": "45 receptors and channels", "details": "10 μM; radioligand binding and functional assays"}, "[3]": {"test_system": "HeLa cells", "details": "100 μM, 3 days after treatment"}}, "note": "Read-outs that look alike come from different tables or passages of the source."}
{"molecule": "O=c1c2cc(F)ccc2n2c(=S)[nH]nc2n1CC1CC1", "note": "[Compound 79, 4-(Cyclopropylmethyl)-7-fluoro-1-thioxo-2,4-dihydro-[1,2,4]-triazolo[4,3-a]quinazolin-5(1H)-one]", "values": [{"measurement": "major metabolite (LC–MS/MS)", "setting": "[1]", "value": "glucuronidation is the major metabolite"}]}
{"molecule": "O=C(Cc1ccc(O)cc1)NCCCn1c(=O)c2cc(F)ccc2n2c(=S)[nH]nc12", "note": "[Compound 127, N-(3-(7-Fluoro-5-oxo-1-thioxo-1,2-dihydro-[1,2,4]triazolo[4,3-a]-quinazolin-4(5H)-yl)propyl)-2-(4-hydroxyphenyl)acetamide]", "values": [{"measurement": "potential off-target interactions", "setting": "[2]", "value": "not detected"}]}
{"molecule": "O=c1c2cc(F)ccc2n2c(=S)[nH]nc2n1CCc1ccccn1", "values": [{"measurement": "major metabolite (LC–MS/MS)", "setting": "[1]", "value": "glucuronidation is the major metabolite"}]}
{"molecule": "N#Cc1ccc(CC(=O)NCCCn2c(=O)c3cc(F)ccc3n3c(=S)[nH]nc23)cc1", "note": "[Compound 134, 2-(4-Cyanophenyl)-N-(3-(7-fluoro-5-oxo-1-thioxo-1,2-dihydro-[1,2,4]triazolo[4,3-a]quinazolin-4(5H)-yl)propyl)acetamide]", "values": [{"measurement": "major metabolite (LC–MS/MS)", "setting": "[1]", "value": "glucuronidation is the major metabolite"}]}
{"molecule": "CC(C)(C)OC(=O)CC[C@H](NC(=O)OC(C)(C)C)C(=O)NCCCn1c(=O)c2cc(F)ccc2n2c(=S)[nH]nc12", "note": "[Compound 103, tert-Butyl (S)-4-((tert-butoxycarbonyl)amino)-5-((3-(7-fluoro-5-oxo-1-thioxo-1,2-dihydro-[1,2,4]triazolo[4,3-a]quinazolin-4(5H)-yl)propyl)amino)-5-oxopentanoate]", "values": [{"measurement": "PAMPA", "setting": "pH 7.4", "value": 744, "unit": "×10⁻⁶ cm/s"}]}
{"molecule": "NCCCn1c(=O)c2cc(F)ccc2n2c(=S)[nH]nc12", "note": "[Compound 68, 4-(3-Aminopropyl)-7-fluoro-1-thioxo-2,4-dihydro-[1,2,4]triazolo-[4,3-a]quinazolin-5(1H)-one]", "values": [{"measurement": "potential off-target interactions", "setting": "[2]", "value": "not detected"}, {"measurement": "PAMPA", "setting": "Free base", "value": 16.8, "unit": "×10⁻⁶ cm/s"}]}
{"molecule": "CCCn1c(=O)c2cccc(F)c2n2c(SC)nnc12", "note": "[Compound 145, 9-Fluoro-1-(methylthio)-4-propyl-[1,2,4]triazolo[4,3-a]-quinazolin-5(4H)-one]", "values": [{"measurement": "decrease of total cell population", "setting": "[3]", "value": "approximately 50%"}]}
{"molecule": "O=c1c2cc(F)ccc2n2c(=S)[nH]nc2n1CCC(F)(F)F", "values": [{"measurement": "major metabolite (LC–MS/MS)", "setting": "[1]", "value": "glucuronidation is the major metabolite"}]}
{"molecule": "CC(C)(C)OC(=O)CC[C@@H](NC(=O)OC(C)(C)C)C(=O)NCCCn1c(=O)c2cc(F)ccc2n2c(=S)[nH]nc12", "note": "[Compound 102, tert-Butyl (R)-4-((tert-butoxycarbonyl)amino)-5-((3-(7-fluoro-5-oxo-1-thioxo-1,2-dihydro-[1,2,4]triazolo[4,3-a]quinazolin-4(5H)-yl)propyl)amino)-5-oxopentanoate]", "values": [{"measurement": "PAMPA", "setting": "pH 7.4", "value": 1214, "unit": "×10⁻⁶ cm/s"}]}
{"molecule": "O=c1c2ccccc2n2c(=S)[nH]nc2n1CCc1ccccc1", "note": "[Compound 7, 4-Phenethyl-1-thioxo-2,4-dihydro-[1,2,4]triazolo[4,3-a]-quinazolin-5(1H)-one]", "values": [{"measurement": "potential off-target interactions", "setting": "[2]", "value": "not detected"}]}
{"molecule": "O=c1c2cc(N3CCOCC3)ccc2n2c(=S)[nH]nc2n1CCc1ccccc1", "values": [{"measurement": "major metabolite (LC–MS/MS)", "setting": "[1]", "value": "glucuronidation is the major metabolite"}]}
